# Ab-14 heavy chain CDR variants: yeast mating affinities

All variants were tested on one target, the spike HR2 peptide PDVDLGDISGINAS (SARS-CoV-2).

Each scFv is VH, the linker GGGGSGGGGSGGGGS, VL, as in the parent Ab-14, and differs from it in the CDRs of the heavy chain only.
VH: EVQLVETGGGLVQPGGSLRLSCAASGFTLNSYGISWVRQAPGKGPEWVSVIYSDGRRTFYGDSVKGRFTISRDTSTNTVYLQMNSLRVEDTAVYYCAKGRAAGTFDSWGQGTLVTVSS
VL: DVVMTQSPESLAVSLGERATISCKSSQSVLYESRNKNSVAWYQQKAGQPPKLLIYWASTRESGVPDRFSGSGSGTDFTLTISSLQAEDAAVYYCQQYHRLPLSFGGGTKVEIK

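Phage display of a naive human antibody library on the peptide gave the parent. In library AAYL49, one, two or three CDR residues were substituted; doubles and triples were drawn at random. The scFvs were displayed on barcoded MATa yeast, the peptide on MATalpha yeast. Pairs that bind mate more often; barcode pairs of the diploids are counted by sequencing. Read counts were normalised to the haploid input and turned into Kd by a linear fit to BCL2-family pairs of known affinity, for each replicate. Mating was done three times.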

Substitutions are numbered in sequence along the VH above, starting at 1 (not Kabat). This list gathers variants with a substitution at G33 (VH, numbered from residue 1). The Kd shown is the geometric mean over detected replicates; a lower Kd is a better binder. A pair that was not seen in any replicate is written "no signal"; this usually means weak binding, but a binder can also be missed. Order: sorted from the lowest average up, undetected variants last. For reference, the parent read 4.4 nM as the reference entry and 13 µM (one replicate of three) as a member of this library.

G33F/R57Y/T58M: 410 nM (1 of 3 replicates).
G33A/V50M: 710 nM (1 of 3 replicates).
G33H/S53R/D54N: 1.2 µM (1 of 3 replicates).
G33C/S35G/Y52F: 1.9 µM (2 of 3 replicates).
N30L/S31H/G33A: 3.2 µM (2 of 3 replicates).
G33Q: 6.5 µM (2 of 3 replicates).
G33C/G55Y: 6.6 µM (1 of 3 replicates).
G33R/R57H: 14 µM (1 of 3 replicates).
G33C/S35V/G55I: 23 µM (1 of 3 replicates).
G33E/G103N: 28 µM (1 of 3 replicates).
G33I/D54V/R100I: 30 µM (1 of 3 replicates).
G33T/G99M: 35 µM (1 of 3 replicates).
G33E/R57L/D62Q: 110 µM (2 of 3 replicates).
L29N/G33K: 160 µM (1 of 3 replicates).
G33D/I34K/D106F: 200 µM (1 of 3 replicates).
G33P/R56N/R57Y: 210 µM (1 of 3 replicates).
N30F/S31Y/G33M: 260 µM (2 of 3 replicates).
G33M/F59L/V64G: 400 µM (3 of 3 replicates).
G33K/V50K/G99M: 600 µM (3 of 3 replicates).
T28D/G33H/V50E: 640 µM (1 of 3 replicates).
L29H/G33D/R57Y: no signal (0 of 3 replicates).
G33K/R57W: no signal (0 of 3 replicates).
G33R/G99Q/T104A: no signal (0 of 3 replicates).
G33E/G55N/G99D: no signal (0 of 3 replicates).
G33W/R56I/A101R: no signal (0 of 3 replicates).
Y32C/G33P/R100F: no signal (0 of 3 replicates).
G33S/S35V/F105L: no signal (0 of 3 replicates).
G33W/R57Y/G103M: no signal (0 of 3 replicates).
G33R: no signal (0 of 3 replicates).
G33L/G55N/Y60S: no signal (0 of 3 replicates).
G33E/D62R: no signal (0 of 3 replicates).
T28Y/G33R/I51R: no signal (0 of 3 replicates).
G33R/S53M: no signal (0 of 3 replicates).
L29G/G33C/S107I: no signal (0 of 3 replicates).
G33T/Y60D/G103T: no signal (0 of 3 replicates).
G33Q/S107M: no signal (0 of 3 replicates).
G33D/Y60V/A102C: no signal (0 of 3 replicates).
G33F/V50K/Y52D: no signal (0 of 3 replicates).
G33M/I34M/G55K: no signal (0 of 3 replicates).
G33V/G55N/D106A: no signal (0 of 3 replicates).
G33L/F105A/D106C: no signal (0 of 3 replicates).
F27T/G33R/I34P: no signal (0 of 3 replicates).
L29G/N30H/G33D: no signal (0 of 3 replicates).

The opening 5 entries, copied out:

| changes | Kd | replicates with signal |
|---|---|---|
| G33F/R57Y/T58M | 410 nM | 1 of 3 |
| G33A/V50M | 710 nM | 1 of 3 |
| G33H/S53R/D54N | 1.2 µM | 1 of 3 |
| G33C/S35G/Y52F | 1.9 µM | 2 of 3 |
| N30L/S31H/G33A | 3.2 µM | 2 of 3 |

As a blank, each scFv also met three strains without target: over library AAYL49, 15% of these pairings were detected, typically at 11 µM and seldom below 680 nM.

Source: Engelhart et al. 2022 (doi:10.1038/s41597-022-01779-4), MIT Lincoln Laboratory and A-Alpha Bio; data file from the FLAb repository.